miR-21 FLuc = miR-21 reporter, rising signal; Potency, µM (titrated, usually from 38.3 µM), without a hit: at the highest dose reporter change, positive = more light; AID 2288; 340,000 tested, under 10 active; HeLa miR-21 FLuc reporter, luciferase, 48 h; active = well fitted rising curve with a large enough effect; inconclusive = small, poorly fitted or top-dose-only effect; inactive = no such curve, though single readings can be large or run the other way;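 note: % of control where 0% means no effect; miR-21 action dims this reporter so a rising signal means less miR-21 action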
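Using DMEM plus 10% FBS, HeLa miR-21-FLuc cells are incubated with test compounds (final up to about 40uM) for 48 hours; firefly luciferase signal is then imaged following reagent-mediated lysis.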
Lamin A splicing = modulators of lamin A splicing | Potency, µM (titrated, usually from 46.1 µM), for inactives: at the top dose ratio change, negative = inhibition, hits mostly inhibitors | HeLa LMNA splicing GFP/RFP minigene ratio, 48 h | hit rate 0.01% among 200,000; active = well fitted inhibition curve with a large enough effect in the signal ratio, with a control signal flat, not every such curve was filed as active; inconclusive = small, poorly fitted or top-dose-only effect, or effect the other way, or a change in a side signal; the % refers to the signal ratio; also: potency is read from the fitted curve at half-maximal effect; % is scaled to controls: 0 for no effect and ±100 for the full control effect
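Read-out is the ratio of GFP to DsRed2 object intensity, acquired by 488 nm laser-scanning cytometry on HeLa lamin A-EGFP minigene reporter cells. Compound incubation 48 hrs at 37 °C in Opti-MEM with 2% FBS; DMSO 0.5% final.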
G9a inh = blocks human histone lysine methyltransferase G9a; hit rate 8.8% among 350,000; Potency, µM (highest dose often 102 µM), inactives show top-dose activity, negative = inhibition, hits mostly inhibitors; G9a H3K9 monomethylation, AlphaScreen, 2 h; AID 504332; also: potency is read from the fitted curve at half-maximal effect; % is scaled to controls: 0 for no effect and ±100 for the full control effect; nearly all actives have a fitted effect of over 75% in size
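Chemiluminescent proximity detection of H3K9 monomethylation, read after 10 min bead incubation in the dark. Reaction: 20 nM G9a, 500 nM biotin-H3K9 peptide, 20 uM SAM cofactor, 2 h, room temperature, following 15 min enzyme-compound preincubation.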
Sfp PPTase inh = blocks B. subtilis Sfp PPTase activity | Q9F4F7 | hit rate 3.5% among 310,000 | Potency, µM, without a hit: max response, negative = inhibition, most hits filed as inhibitors | AID 1490 | Biochemical Sfp PPTase activity, qHTS; active means well fitted inhibition curve with a large enough effect; inconclusive means small, poorly fitted or top-dose-only effect, or another doubt; inactive means no such curve, though single readings can be large or run the other way;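 further: the enzyme is Sfp with the accession as filed and its product quenches rhodamine fluorescence; potency means the concentration at half of the fitted maximal effect; 0% = enzyme reaction without inhibitor and -100% = no enzyme wells; top concentration of the series not given in the record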
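Step 1, compound plus 15 nM Sfp-PPTase, 15 min, room temperature. Step 2, add rhodamine-CoA (5 uM) and BHQ-2-YbbR (12.5 uM). Step 3, read 525/598 nm fluorescence at 0 and 30 min.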
KDM4E inh = JMJD2E (human) inhibition. hit rate 1.6% among 230,000. JMJD2E catalytic domain, FDH-coupled NADH fluorescence (FDH is formaldehyde dehydrogenase). Potency, µM (highest dose often 57.1 µM), for inactives: at the top dose activity change, negative = inhibition, actives largely listed as inhibitors. B2RXH2; active = well fitted inhibition curve with a large enough effect, not every such curve was filed as active; inconclusive = small, poorly fitted or top-dose-only effect, or another doubt; inactive = no such curve, though single readings can be large or run the other way;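 also: potency is read from the fitted curve at half-maximal effect; 0% = wells with enzyme and -100% = buffer wells without enzyme; nearly all actives have a fitted effect of over 50% in size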
ALDH1A1 block = blocks purified human ALDH1A1 activity; P00352; Purified ALDH1A1, NADH fluorescence, propionaldehyde substrate; Potency, µM (titrated, usually from 75.3 µM), for the others: at the highest dose activity, negative = inhibition, usual class: inhibitors; hit rate 7.3% among 220,000; active = well fitted inhibition curve with a large enough effect, not every such curve was filed as active; inconclusive = small, poorly fitted or top-dose-only effect, or another doubt; inactive = no such curve, though single readings can be large or run the other way;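 also: potency is read from the fitted curve at half-maximal effect; plate controls were no enzyme wells and a reference inhibitor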
The depositor's hits bear a star; ? = inconclusive; . = no result; [ ] = remark or other dose. This is a sample that favours compounds with a hit; in the whole collection about 13% have one here. Unless noted, calls follow the shape of the dose curve; as a rule, active = well fitted curve in the direction sought with a large enough effect; inconclusive = small, poorly fitted or top-dose-only effect, or another doubt; inactive = no such curve, though single readings can be large; an effect the other way counts as inactive or inconclusive.

(1) O=C(NCc1ccc2c(c1)OCO2)C1CCC(CNS(=O)(=O)c2ccc(Cl)cc2)CC1 (stereo not drawn)
(2) Cc1ccc(S(=O)(=O)NCC2CCC(C(=O)NCc3cccnc3)CC2)cc1 (stereo not drawn)
(3) COc1ccc(C(=O)N2CCC[C@@]3(CCN(Cc4ccccc4OC)C3)C2)cc1
(4) CCOc1ccc(NC(=O)Cn2cc(C(=O)c3ccc(C)c(C)c3)c(=O)c3cc4c(cc32)OCCO4)cc1
(5) Cc1cc(=O)oc2c3c(cc(OCC(=O)NC(C)C)c12)OC(C)(C)CC3
(6) CCN(CC)S(=O)(=O)c1ccc(NC(=O)[C@H](CSCc2ccccc2)N2Cc3ccccc3C2=O)cc1
(7) CSCCC(NC(=O)c1cccc(S(=O)(=O)N2CCOCC2)c1)C(=O)Nc1ccc(F)cc1 (stereo not drawn)
(8) O=C(Nc1ccncc1)c1cccc(S(=O)(=O)N2CCOCC2)c1
compound no. | 1 | 2 | 3 | 4 | 5 | 6 | 7 | 8
miR-21 FLuc | -4% | -3% | . | -9% | -20% | 3% | -14% | .
Lamin A splicing | 12% | ? | . | . | . | . | -7% | .
G9a inh | 5% | 1% | 7%[12.7 µM] | -40%[59 µM] | 24% | 2%[59 µM] | 7.1µM* | 18%[2.33 µM]
Sfp PPTase inh | 2% | 4% | 6% | . | 12% | . | 10% | .
KDM4E inh | 0% | 0% | . | . | . | . | 0% | .
ALDH1A1 block | 6% | 6.3µM* | 1% | . | . | . | 13% | .

(9) Cc1nnc(NC(=O)c2cccc(S(=O)(=O)N3CCOCC3)c2)s1
(10) O=C(Nc1ncn[nH]1)c1cccc(S(=O)(=O)N2CCOCC2)c1
(11) Cc1cnc(NC(=O)c2cccc(S(=O)(=O)N3CCOCC3)c2)s1
(12) COC(=O)c1ccccc1NS(=O)(=O)c1ccc(Cl)nc1
(13) Cc1ccc(N2C(=O)c3ccccc3C2Nc2ccccc2F)nc1 (stereo not drawn)
(14) COc1cc2[nH]c(=S)nc(NCCc3ccc(C)cc3)c2cc1OC
(15) COc1cc2[nH]c(=S)nc(NCCC(C)C)c2cc1OC
(16) COc1ccccc1CNc1nc(=S)[nH]c2cc(OC)c(OC)cc12
compound no. | 9 | 10 | 11 | 12 | 13 | 14 | 15 | 16
miR-21 FLuc | 0% | 0% | . | -4% | -11% | -1% | 10% | -1%
Lamin A splicing | 8% | -6%[9.22 µM] | . | ? | 1% | . | ? | .
G9a inh | 20%[12.7 µM] | 16µM* | 7.1µM* | 3% | 50µM* | 5% | 18µM* | 79µM*
Sfp PPTase inh | 12% | -29% | . | 7% | 15% | 10% | 7% | -7%
KDM4E inh | -5% | 11% | . | 3% | -8% | ? | ? | .
ALDH1A1 block | -6% | ? | . | -5% | -17% | 7% | ? | .

(17) COc1cc2[nH]c(=S)nc(NCCc3ccc(S(N)(=O)=O)cc3)c2cc1OC
(18) COc1cc2[nH]c(=S)nc(NCc3cccs3)c2cc1OC
(19) COc1ccc2c(c1)OC[C@H]1[C@H]2N2C(=O)CN(CCc3c[nH]c4ccccc34)C(=O)[C@@]2(C)[C@H]1c1ccccc1
(20) CC(=O)c1ccc(NC(=O)c2cc(-c3ccc(Cl)c(Cl)c3)on2)cc1
(21) Cn1cccc1C(=O)N1CCC2(CCN(Cc3ccncc3)CC2)CC1
(22) COc1ccc(N2CCN(CC(O)COc3ccc(C(C)C)c(C)c3)CC2)cc1 (stereo not drawn)
(23) COc1ccc(N2CCN(CC(O)COc3ccc(C)c(C)c3)CC2)cc1 (stereo not drawn)
(24) Cc1cc(OCC(O)CN2CCCC2)ccc1C(C)C (stereo not drawn)
compound no. | 17 | 18 | 19 | 20 | 21 | 22 | 23 | 24
miR-21 FLuc | -11% | 12% | . | -13% | . | 15% | -5% | 2%
Lamin A splicing | -12%[46 µM] | -22%[46 µM] | . | . | . | . | 9%[46 µM] | .
G9a inh | 13µM* | 28µM* | -10%[0.501 µM] | 7%[59 µM] | 0%[12.7 µM] | 6.3µM* | 32µM* | .
Sfp PPTase inh | -7% | 0% | . | . | 19% | . | -1% | 8%
KDM4E inh | 6% | 4% | . | . | . | . | . | .
ALDH1A1 block | 11% | 11µM* | . | . | 12% | . | . | .

Record cards, from the list above.
Shown for COc1cc2[nH]c(=S)nc(NCc3cccs3)c2cc1OC → miR-21 FLuc = 12%; Lamin A splicing = -22%[46 µM]; G9a inh = 28µM*; Sfp PPTase inh = 0%; KDM4E inh = 4%; ALDH1A1 block = 11µM*
Shown for COc1ccc(N2CCN(CC(O)COc3ccc(C(C)C)c(C)c3)CC2)cc1 (stereo not drawn) → miR-21 FLuc = 15%; Lamin A splicing = .; G9a inh = 6.3µM*; Sfp PPTase inh = .; KDM4E inh = .; ALDH1A1 block = .

Next results:
(25) CCN(CC)C(=O)c1csc(Nc2ccc(C)cc2)n1
(26) Cc1ccc(Nc2nc(C(=O)NCCCN3CCOCC3)cs2)cc1
(27) Cc1ccc(Nc2nc(C(=O)NCc3ccco3)cs2)cc1
(28) Cc1ccc(-c2cc(C(=O)NCCCN3CCOCC3)no2)cc1
(29) COc1ccc(N2CC(NC(=O)c3ccc(S(=O)(=O)N4CCCCC4)cc3)CC2=O)cc1 (stereo not drawn)
(30) COc1ccc(C2NC(=O)N(C)C3=C2C(=O)N(c2cccc(C(=O)O)c2)C3)cc1 (stereo not drawn)
(31) Oc1cccc(/C=N/Nc2ncnc3c2ncn3Cc2ccccc2)c1
(32) Oc1ccc(/C=N/Nc2ncnc3c2ncn3Cc2ccccc2)cc1O
compound no. | 25 | 26 | 27 | 28 | 29 | 30 | 31 | 32
miR-21 FLuc | -21% | -5% | -10% | 19% | 0% | 1% | -54% | -25%
Lamin A splicing | -2% | ? | ? | 6% | -5%[46 µM] | . | 1% | ?
G9a inh | 13µM* | 89µM* | ? | 3%[12.7 µM] | 4%[59 µM] | -27%[59 µM] | 5%[59 µM] | 14%[59 µM]
Sfp PPTase inh | 20µM* | -7% | -20% | 13% | . | . | 9% | 5%
KDM4E inh | -1% | -11% | -8% | -15% | . | . | -3% | 10µM*
ALDH1A1 block | 3% | -5% | 5% | -1% | . | . | 4% | ?

(33) CCOC(=O)c1sc2ccccc2c1S(=O)(=O)NCc1ccccc1OC
(34) CC1CCN(c2ccc(C(=O)O)cc2N)CC1
(35) CCOC(=O)c1ccc(N2CCN(c3cc(C)ccc3C)CC2)c(NC(=O)Nc2ccc(CC)cc2)c1
(36) CCOC(=O)c1ccc(N2CCN(c3cc(C)ccc3C)CC2)c(N)c1
(37) Cc1ccc(S(=O)(=O)N2C(=O)[C@@H]3Cc4ccccc4CN3C2=O)cc1
(38) COc1cc(C2CC(=O)Nc3cc4c(cc32)OCCO4)cc(OC)c1O (stereo not drawn)
(39) CCCN1C(=O)/C(=C2/C=Cc3ccccc3N2CC)SC1=S
(40) CCN1C(=O)/C(=C2/C=Cc3ccccc3N2CC)SC1=S
compound no. | 33 | 34 | 35 | 36 | 37 | 38 | 39 | 40
miR-21 FLuc | 0% | -7% | 3% | -7% | -5% | 18% | 0% | -21%
Lamin A splicing | -8%[46 µM] | 7% | 4%[46 µM] | . | . | . | ? | .
G9a inh | 3%[59 µM] | 79µM* | 5%[59 µM] | 45µM* | 40µM* | ? | 3.2µM* | 13µM*
Sfp PPTase inh | . | 10% | . | ? | 17% | . | 4% | -15%
KDM4E inh | . | ? | . | . | . | . | 3% | -5%
ALDH1A1 block | . | -7% | . | . | . | . | -6% | 1%

(41) O=C(O)C(Cl)(c1ccccc1)c1ccccc1
(42) CCC1=NC(c2ccc(OC)cc2OC)N(O)C1(C)C (stereo not drawn)
(43) CCC1=NC(c2ccccc2Cl)N(O)C1(C)C (stereo not drawn)
(44) Cc1ccc(NC(=O)c2ccc(NCCCN3CCC(C)CC3)c([N+](=O)[O-])c2)cc1F
(45) CCCCOc1ccccc1NC(=O)CC1Sc2ccccc2NC1=O (stereo not drawn)
(46) CC1C(=O)NN=C1C(=O)N/N=C\c1ccc(O)cc1O (stereo not drawn)
(47) COc1cc(/C=N/NC(=O)C2=NNC(=O)C2C)ccc1O (stereo not drawn)
(48) CC1C(=O)NN=C1C(=O)N/N=C/c1ccco1 (stereo not drawn)
compound no. | 41 | 42 | 43 | 44 | 45 | 46 | 47 | 48
miR-21 FLuc | . | -4% | -1% | -7% | -6% | -38% | -34% | -29%
Lamin A splicing | . | -8% | -8% | . | . | -7% | . | ?
G9a inh | . | ? | 13%[59 µM] | 71µM* | 15%[59 µM] | 5%[59 µM] | ? | ?
Sfp PPTase inh | . | -26% | 11% | -12% | . | 26% | 50µM* | -28%
KDM4E inh | . | -26% | -7% | 1% | . | 22µM* | -13% | -2%
ALDH1A1 block | -10%[13.5 µM] | 8.9µM* | 8% | 10% | . | 11% | . | 6%

Source: PubChem BioAssay
